The results in this text go back to patent US6645976B1 (Eli Lilly and Company, priority 1994, dated 2003).

What is called IC50 is the point on the concentration scale where inhibition reaches its midpoint.

The test concerns the target T1, recombinant human secreted phospholipase A2 (Homo sapiens, UniProt P14555).
T1 sequence (P14555 21-144): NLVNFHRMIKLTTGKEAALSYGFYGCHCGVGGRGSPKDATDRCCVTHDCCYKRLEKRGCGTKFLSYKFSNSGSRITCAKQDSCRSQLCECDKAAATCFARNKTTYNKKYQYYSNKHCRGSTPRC
Briefly: sPLA2 Chromogenic Assay (Assay 1). In kind it is biochemical. As to conditions: diheptanoyl thio-PC substrate, pH 7.5, 40° C. for 30 minutes, absorbance at 405 nanometers.

Take “2-(3-Biphenyl-2-ylmethyl-8-(1-cyclopentyloxycarbonyloxymethyloxy-carbamoanecarbonyl-2-ethylindolizin-1-yl)glyoxylamide [Compound 59f]”: the IC50 was determined as 70 nM.
